Reference: US20250059202A1, “CRYSTAL FORM OF FUSED RING DERIVATIVE, AND PREPARATION METHOD THEREFOR AND USE THEREOF” (SHANGHAI YINGLI PHARMACEUTICAL CO., LTD, priority 2022, published 2025)

Assays:
Format in all cases: physicochemical
[1] = Competition experiments of crystal form I and crystal form IV in solvents at room temperature; conditions: 7 days, each tested solvent
[2] = Influencing factor stability test, high temperature (60±2° C.); conditions: 10 days
[3] = Influencing factor stability test, high humidity (25° C., RH92.5±5%); conditions: 10 days
[4] = Influencing factor stability test, light (4500±500 Lux, 25° C.); conditions: 10 days

relative stability of crystal forms [1]: superior to that of the crystal form IV
change of the assessment indexes compared with the sample before treatment [2]: no significant change
change of the assessment indexes compared with the sample before treatment [3]: no significant change
change of the assessment indexes compared with the sample before treatment [4]: no significant change
SMILES: CC(C)(Cc1cc2c(-c3ccc(C#N)cc3)cncc2s1)C(=O)O [crystal form I, 3-[4-(4-Cyanophenyl)thieno[2,3-c]pyridin-2-yl]-2,2-dimethylpropanoic acid]
